The values that follow come from patent publication US20230365492A1, “LITHIUM ORGANIC ACID-AMINO ACID SALT, AND CRYSTAL FORM, COMPOSITION AND APPLICATION THEREOF” (ANYU BIOTECHNOLOGY (HANGZHOU) CO., LTD., priority 2020, published 2023).

One series concerns HEK293 cells. The following applies: 5 mM, 4 hours, confocal microscope.
For series [1] the following is noted: male SD rats, gavage 0.08 mmol lithium/rat, 0-24 hours, compared with lithium carbonate.
Series [2] has as its system Kunming mice.
Series [3] relates to Kunming mice. Kind of series: Oral acute toxicity (limited test method / Horn's method). The following applies: mouse, in vivo.

lithium isobutyrate-L-proline salt: in the series on HEK293 cells, the “change in morphology of HEK293 cells” value is “no obvious change in morphology”. The “level of lithium in the brain” value in series [1] (brain tissues) was “no obvious difference in the level of lithium in the brain”. Moreover, the blood lithium level entry in series [1] (plasma) is “higher blood lithium level”. Moreover, the gross anatomy findings result in the series on Kunming mice [2] (oral acute toxicity, after 14 days or death) is “no abnormalities are found after the gross anatomy”. Further, in the series with Kunming mice [2] (oral, single administration, 14 days observation), the LD50 value entry is listed as “greater than 5,000 mg/kg”. Besides, in the series on Kunming mice [3], the “death of experimental animals” value was “not dead within 14 days”.
